We go through seven compounds from PubChem BioAssay AID436 (Emory University Molecular Libraries Screening Center, 2006).

Chains of the proteins cited; added tags and fusions are not shown.
UniProt Q92560, whole entry: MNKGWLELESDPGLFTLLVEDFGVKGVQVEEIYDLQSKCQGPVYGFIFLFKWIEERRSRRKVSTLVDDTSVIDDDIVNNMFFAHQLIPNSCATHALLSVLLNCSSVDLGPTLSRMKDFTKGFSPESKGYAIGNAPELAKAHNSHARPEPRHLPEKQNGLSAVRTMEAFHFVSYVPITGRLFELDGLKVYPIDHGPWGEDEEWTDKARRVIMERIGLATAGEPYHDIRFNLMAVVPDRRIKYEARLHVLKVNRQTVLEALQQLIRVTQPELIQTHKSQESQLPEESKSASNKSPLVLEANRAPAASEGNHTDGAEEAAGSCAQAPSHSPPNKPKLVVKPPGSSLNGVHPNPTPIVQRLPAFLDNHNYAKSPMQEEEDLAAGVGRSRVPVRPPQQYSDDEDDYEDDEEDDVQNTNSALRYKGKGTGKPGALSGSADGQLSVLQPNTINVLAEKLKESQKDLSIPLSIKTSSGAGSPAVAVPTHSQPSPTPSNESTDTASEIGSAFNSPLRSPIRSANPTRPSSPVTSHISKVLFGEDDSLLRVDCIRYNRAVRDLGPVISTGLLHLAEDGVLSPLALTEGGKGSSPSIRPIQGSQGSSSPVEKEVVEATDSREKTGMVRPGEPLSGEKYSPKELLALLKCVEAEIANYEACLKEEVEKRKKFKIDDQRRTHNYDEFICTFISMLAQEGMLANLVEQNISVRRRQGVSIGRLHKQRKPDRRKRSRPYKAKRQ

The structures appear in SMILES notation. The entries are a selection whose mix differs from that of the whole data set. Activity calls are given as the source filed them.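 The calls were made as follows: active = activity remaining at or below 50% of control, provided the compound also passes the data quality filters; inactive = the rest, including low values that fail the filters.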

In this assay the target is Ubiquitin carboxyl-terminal hydrolase BAP1 (Homo sapiens) (UniProt Q92560). The experiment in a line: inhibitors of BAP1 deubiquitinase, primary screen, biochemical, Ub-AMC fluorescence, kinetic (AID 436).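 Also: 100% = DMSO wells rate and 0% = substrate alone blank rate.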 The conditions noted are these: recombinant BAP1, Ub-AMC hydrolysis fluorescence kinetic; at 20 µM; active compounds read low.
For the compound `N/C(=N\O)c1c(N)no[n+]1[O-]`, the activity remaining (% of control) is inactive: 95.7%.

For `Fc1ccccc1NC1CCN(Cc2ccccc2)CC1`, the activity remaining (% of control) is inactive: 88.8%. In the case of `CCC(CO)(C(=O)OC1CN2CCC1CC2)c1ccccc1` (configuration not stated), the activity remaining (% of control) was inactive: 96.8%. As for `CCOc1ncccc1C(=O)NCC1(N2CCOCC2)CCCCC1`, the activity remaining (% of control) is inactive: 101%. The result for `O=C(OC1CN2CCC1CC2)C1c2ccccc2Oc2ccccc21` (configuration not stated) reads inactive: 84%; that for `COc1ccc(NC2CCN(CCc3ccccc3)CC2)c(OC)c1`, inactive: 108%; that for `N#CC1(Nc2ccccc2)CCN(CCc2ccccc2)CC1`, inactive: 109%.
